The chains behind the UniProt entries cited, without tags or fusion partners.
UniProt P10635, whole entry: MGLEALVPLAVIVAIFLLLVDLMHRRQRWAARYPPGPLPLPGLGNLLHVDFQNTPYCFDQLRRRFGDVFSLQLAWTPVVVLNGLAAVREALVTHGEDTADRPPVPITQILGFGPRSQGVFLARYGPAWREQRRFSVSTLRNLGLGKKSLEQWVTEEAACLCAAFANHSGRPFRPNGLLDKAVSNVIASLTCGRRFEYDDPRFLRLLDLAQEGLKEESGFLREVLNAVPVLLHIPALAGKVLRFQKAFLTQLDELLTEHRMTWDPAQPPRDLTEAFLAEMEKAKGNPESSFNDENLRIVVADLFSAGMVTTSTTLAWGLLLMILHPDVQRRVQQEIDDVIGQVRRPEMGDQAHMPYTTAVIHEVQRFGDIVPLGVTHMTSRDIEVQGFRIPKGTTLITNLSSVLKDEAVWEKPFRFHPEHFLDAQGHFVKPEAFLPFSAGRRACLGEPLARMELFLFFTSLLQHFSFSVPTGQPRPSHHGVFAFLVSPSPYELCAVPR

In PMC5595947 (British Journal of Clinical Pharmacology, 2017):

What was measured:
[1] = molecular target: CYP2D6 (Homo sapiens, UniProt P10635); conditions: HLM, 30‐min preincubation
[2] = single dose; poor CYP2D6 metabolizers; cited from earlier work

CCCN1CCC(c2cccc(S(C)(=O)=O)c2)CC1 [pridopidine, 4‐[3‐(methylsulfonyl)phenyl]‐1‐propylpidperidine]
decrease in IC50 values (NADPH‐dependent) [1]: < 1.3 fold | elimination half‐life (t1/2) [2]: ~15 h
